This is an account of results in PubChem BioAssay (Tox21).

Amino acid sequences for entries named in this document (tags omitted). A change or cut given only in a name is not applied to a line headed by its entry.
UniProt P11229: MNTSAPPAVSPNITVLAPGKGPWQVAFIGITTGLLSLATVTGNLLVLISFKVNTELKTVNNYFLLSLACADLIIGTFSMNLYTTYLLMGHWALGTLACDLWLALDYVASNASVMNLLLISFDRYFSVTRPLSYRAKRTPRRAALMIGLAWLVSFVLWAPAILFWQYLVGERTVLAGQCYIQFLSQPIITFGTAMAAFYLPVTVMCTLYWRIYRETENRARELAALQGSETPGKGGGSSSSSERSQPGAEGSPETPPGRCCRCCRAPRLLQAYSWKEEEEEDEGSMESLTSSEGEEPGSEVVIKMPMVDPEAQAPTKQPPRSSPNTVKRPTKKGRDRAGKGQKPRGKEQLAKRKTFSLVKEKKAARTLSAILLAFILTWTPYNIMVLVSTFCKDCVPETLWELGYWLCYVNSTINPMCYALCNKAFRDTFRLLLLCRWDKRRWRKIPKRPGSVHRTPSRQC

“And” between values parts separate entries of the source, which are not always exact repeats. Equal values may be shown once. The entries are a selection whose mix differs from that of the whole data set. The source made the active and inactive calls. The call rests on the fitted dose curve.
On the % scale 0 is the no-effect control and ±100 the full control effect.

One experiment has as its target Muscarinic acetylcholine receptor M1 (Homo sapiens) (UniProt P11229). In words: Cholinergic receptor muscarinic 1 (CHRM1) small molecule agonists, cell-based qHTS assay (AID 1963589). Further: nearly all actives have a fitted effect of over 35% in size. Conditions: CHRM1-CHO cells, agonist mode, calcium flux fluorescence; at 15.8 µM (top of the series). The source says: National Center for Advancing Translational Sciences [NCATS]
Division of Preclinical Innovation [DPI]
U.S. Environmental Protection Agency [EPA]
National Institutes of Environmental Health Sciences [NIEHS]
National Toxicology Program [NTP]
U.S. Food and Drug Administration [FDA]
The CHRM1 is a muscarinic receptor. This receptor plays a crucial role in learning and memory processes and has long been identified as a promising therapeutic target for the improvement of cognitive decline in Alzheimer's disease (AD). The CHRM1-CHO cell line stably expressing human muscarinic acetylcholine receptor M1 (CHRM1) can be used for screening agonists and antagonists of interactions between CHRM1 and its ligands. The CHRM1-CHO Calcium Flux Assay is a homogeneous fluorescence-based assay for detecting the intracellular calcium level using FDSS kinetic plate reader system.
CHRM1-CHO cells were dispensed at 1000 cells/3uL/well in 1536-well black-clear bottom plates using a Multidrop Dispenser. After the assay plates were incubated at a 37 C/5% CO2 incubator for 18 h, 3 uL of Dye Loading Buffer was transferred to the assay plate by a Flying Reagent Dispenser. The assay plates were incubated at 37 C for 1h. For agonist mode, 23 nL of compounds dissolved in DMSO, positive controls or DMSO only was transferred to the assay plate by a pin tool. […] Each test compound was measured at 15 concentrations in three independent runs.
On the technique in general: qHTS replaces the single test concentration by a dilution series.
Take `CCC(C)(OOC(C)(C)C)OOC(C)(C)C`: the activation is inactive: 0.0465%.

The experiment is the same for the next values; noted with them: CHRM1-CHO cells, agonist mode, calcium flux fluorescence; at 35.3 µM (top of the series).
Consider `C[C@H]1C(=O)O[C@@H]2CCN3CC=C(COC(=O)[C@](C)(O)[C@]1(C)O)[C@H]23`, for which the activation was inactive: 0.0447%.
For the compound `NC(=O)Nc1ccc([As](=O)(O)O)cc1`, the activation was inactive: -0.032%.
Consider `CCN(CC)CCOC(=O)C(O)(c1ccccc1)c1ccccc1`, for which the activation was inactive: 6.88%.
The same measure, in the same setting: the figure for `CN(C(=O)Cc1ccccc1)[C@H]1CC[C@@]2(CCCO2)C[C@@H]1N1CCCC1` is inactive: 0.0053%; for `CN(C(=O)Cc1ccc(Cl)c(Cl)c1)[C@H]1CC[C@@]2(CCCO2)C[C@@H]1N1CCCC1` it is inactive: 0%.

Still in this experiment, the particulars now being: CHRM1-CHO cells, agonist mode, calcium flux fluorescence; at 76.8 µM (top of the series).
As for `O=C(Cl)OCCOC(=O)Cl`, the activation was inactive: 0.072%.
On to `O=P(Cl)(Cl)c1ccccc1`, for which the activation was inactive: 9.84%.
The same measure, in the same setting: the same measure for `CN(N=O)C(=N)N[N+](=O)[O-]`: inactive: 0.0189%.
Still for that read-out and setting: the same measure for `CCCCO[P+](=O)OCCCC`: inactive: -0.213% and inactive: 0.0558%; for `CCCCC(CC)CO[P+](=O)OCC(CC)CCCC` (stereo not drawn): inactive: -0.111%.
Same read-out and setting: the same measure for `Cc1cc([N+](=O)[O-])c(O)c([N+](=O)[O-])c1`: inactive: 1.98%.
Take `CCCCCCCCCCCCCC[P+](CCCCCC)(CCCCCC)CCCCCC`: the activation was inactive: -0.604%.
Still for that read-out and setting: the figure for `CCNC(C)Cc1ccc2c(c1)OCO2` (stereo not drawn) is inactive: 0.103%.
Take `O=[N+]([O-])c1ccc([N+](=O)[O-])cc1`: the activation is inactive: 2.88%.
Same read-out and setting: the figure for `N#CSc1ccc([N+](=O)[O-])cc1[N+](=O)[O-]` is inactive: 8.05%; for `CC(C)OP(=S)(OC(C)C)SCCNS(=O)(=O)c1ccccc1` it is inactive: 0.607%.
For `C[C@H]1C(=O)O[C@@H]2CCN3CC=C(COC(=O)[C@](C)(O)[C@]1(C)O)[C@H]23`, the activation was inactive: -0.163% and inactive: -1.22%.
Same read-out and setting: the figure for `O=C(Cl)Oc1ccccc1` is inactive: 0.891%; for `NC(=O)Nc1ccc([As](=O)(O)O)cc1` it is inactive: 2.38%; for `CCOC(=O)Cl` it is inactive: -0.387%.
Same read-out and setting: the same measure for `ClP(Cl)c1ccccc1`: inactive: 0.0478%; for `COP(=S)(Cl)OC`: inactive: -0.101%.
The same measure, in the same setting: the figure for `O=[P+](Oc1ccccc1)Oc1ccccc1` is inactive: -0.0005%; for `O=P(Cl)(Oc1ccccc1)Oc1ccccc1` it is inactive: 0.0209%; for `CCOP(=S)(CC)Sc1ccccc1` (stereo not drawn) it is inactive: -0.229%.
On to `CCCCOP(OCCCC)OCCCC`, for which the activation was inactive: 0.0224%.
On to `O=[N+]([O-])c1ccc(S(=O)(=O)O)c([N+](=O)[O-])c1`, for which the activation was inactive: 0.724%.
The same measure, in the same setting: the same measure for `CC(C)CCCCCCCOP(OCCCCCCCC(C)C)Oc1ccccc1`: inactive: 0.238%; for `Cc1cc([N+](=O)[O-])cc([N+](=O)[O-])c1O`: inactive: 3.47% and inactive: 2.51%.
Still for that read-out and setting: the figure for `O=[p+]1oc2ccccc2c2ccccc21` (stereo not drawn) is inactive: 0.602%.
The same measure, in the same setting: the same measure for `CN(C(=O)Cc1cccc2occc12)[C@H]1CC[C@@]2(CCCO2)C[C@@H]1N1CCCC1`: inactive: -0.846%; for `COC(=O)Cl`: inactive: 1.05%.
